Measurements from PubChem BioAssay AID504333 (National Center for Advancing Translational Sciences (NCATS), 2011).
This is a selection; strong and weak results do not stand in their true shares. Inconclusive results are not listed. Entries that show only a call come without a potency. The source made the active and inactive calls. Calls follow the shape of the dose curve; as a rule, active = well fitted inhibition curve with a large enough effect; inconclusive = small, poorly fitted or top-dose-only effect; inactive = no such curve, though single readings can be large or run the other way.

By UniProt entry, the sequences of proteins in these tests, tags left out.
UniProt Q9UIF8, whole entry: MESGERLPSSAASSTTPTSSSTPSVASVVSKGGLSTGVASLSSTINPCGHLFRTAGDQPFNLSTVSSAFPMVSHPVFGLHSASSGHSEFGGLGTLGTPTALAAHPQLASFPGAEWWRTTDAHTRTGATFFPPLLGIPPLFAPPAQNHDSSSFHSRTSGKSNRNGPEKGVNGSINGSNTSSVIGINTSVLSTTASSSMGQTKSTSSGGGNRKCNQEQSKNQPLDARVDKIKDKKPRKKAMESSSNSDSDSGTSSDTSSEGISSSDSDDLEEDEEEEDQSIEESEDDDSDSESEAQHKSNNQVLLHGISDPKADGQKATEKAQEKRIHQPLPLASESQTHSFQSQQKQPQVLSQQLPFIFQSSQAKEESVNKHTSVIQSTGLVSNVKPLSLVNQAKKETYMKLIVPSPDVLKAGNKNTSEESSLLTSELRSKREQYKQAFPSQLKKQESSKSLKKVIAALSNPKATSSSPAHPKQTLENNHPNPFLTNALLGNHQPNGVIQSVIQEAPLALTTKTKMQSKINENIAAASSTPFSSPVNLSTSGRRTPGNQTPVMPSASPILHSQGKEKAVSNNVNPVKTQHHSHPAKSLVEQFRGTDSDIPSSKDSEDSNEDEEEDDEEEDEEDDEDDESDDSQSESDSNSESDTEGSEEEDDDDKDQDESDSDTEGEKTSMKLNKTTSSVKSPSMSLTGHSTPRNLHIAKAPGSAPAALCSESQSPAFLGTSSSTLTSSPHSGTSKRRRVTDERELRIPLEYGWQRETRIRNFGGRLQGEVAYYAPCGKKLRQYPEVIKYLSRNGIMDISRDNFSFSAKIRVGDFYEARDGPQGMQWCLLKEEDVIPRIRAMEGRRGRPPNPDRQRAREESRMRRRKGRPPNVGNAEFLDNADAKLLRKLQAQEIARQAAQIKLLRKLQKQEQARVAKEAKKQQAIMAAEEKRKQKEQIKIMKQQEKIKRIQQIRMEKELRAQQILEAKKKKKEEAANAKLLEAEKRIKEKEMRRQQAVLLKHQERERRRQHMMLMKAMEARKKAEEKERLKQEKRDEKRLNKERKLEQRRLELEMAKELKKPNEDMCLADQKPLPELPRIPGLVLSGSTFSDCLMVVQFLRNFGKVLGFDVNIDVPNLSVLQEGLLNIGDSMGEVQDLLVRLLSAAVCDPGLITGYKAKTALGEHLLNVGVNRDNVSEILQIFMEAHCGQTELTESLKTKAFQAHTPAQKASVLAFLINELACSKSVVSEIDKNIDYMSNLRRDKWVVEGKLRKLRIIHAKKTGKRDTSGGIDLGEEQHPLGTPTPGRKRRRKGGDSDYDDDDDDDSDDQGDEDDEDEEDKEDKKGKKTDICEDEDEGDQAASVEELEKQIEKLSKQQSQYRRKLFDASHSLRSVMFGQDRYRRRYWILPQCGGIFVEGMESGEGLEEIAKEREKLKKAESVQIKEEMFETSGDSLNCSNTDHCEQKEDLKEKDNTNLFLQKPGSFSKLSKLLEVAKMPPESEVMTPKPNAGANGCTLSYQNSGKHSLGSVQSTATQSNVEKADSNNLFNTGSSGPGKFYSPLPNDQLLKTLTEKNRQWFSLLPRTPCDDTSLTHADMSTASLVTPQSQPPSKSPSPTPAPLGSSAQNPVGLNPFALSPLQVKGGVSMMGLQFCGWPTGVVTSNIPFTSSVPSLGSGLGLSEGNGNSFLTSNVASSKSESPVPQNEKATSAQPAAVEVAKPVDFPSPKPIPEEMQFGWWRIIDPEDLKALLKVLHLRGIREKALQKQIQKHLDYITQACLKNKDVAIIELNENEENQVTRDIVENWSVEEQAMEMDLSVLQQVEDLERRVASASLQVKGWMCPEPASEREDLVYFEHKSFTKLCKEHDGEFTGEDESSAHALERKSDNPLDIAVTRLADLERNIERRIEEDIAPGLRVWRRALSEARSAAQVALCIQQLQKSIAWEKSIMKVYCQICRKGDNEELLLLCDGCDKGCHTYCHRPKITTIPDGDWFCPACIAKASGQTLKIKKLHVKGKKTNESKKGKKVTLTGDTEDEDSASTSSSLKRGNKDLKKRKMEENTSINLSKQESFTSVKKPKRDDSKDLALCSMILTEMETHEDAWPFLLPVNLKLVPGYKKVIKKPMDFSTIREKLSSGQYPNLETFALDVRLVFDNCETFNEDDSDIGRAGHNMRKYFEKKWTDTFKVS

Target: Bromodomain adjacent to zinc finger domain protein 2B (Homo sapiens) (UniProt Q9UIF8)
Assay: qHTS Assay for Inhibitors of BAZ2B; also: nearly all actives have a fitted effect of over 60% in size
Conditions: AlphaScreen BAZ2B-H3K14Ac peptide displacement; series mostly up to 114 µM
Potency is read from the fitted curve at half-maximal effect.

| SMILES | Potency |
| --- | --- |
| COc1ccc(NP(C)(=O)Oc2ccccc2OC)cc1 (stereo unspecified) | inactive |
| COc1ccc(OP(C)(=O)Nc2cccc(Br)c2)cc1 (stereo unspecified) | inactive |
| O=[N+]([O-])c1ccc(OP2(=O)COCCO2)cc1 (stereo unspecified) | inactive |
| Cc1cc(-c2cccc3ccccc23)c(C)cn1.O=[N+]([O-])c1cc([N+](=O)[O-])c(O)c([N+](=O)[O-])c1 | inactive |
| CCOP(C)(=S)SCC(=O)NC(C)(CC)C(=O)O (stereo unspecified) | inactive |
| CP(=O)(Nc1ccc(SC(F)(F)F)cc1)Oc1ccc(F)cc1 (stereo unspecified) | inactive |
| Cc1ccccc1NP(C)(=O)Nc1ccccc1C | inactive |
| CP(=O)(Nc1ccc2c(c1)OCCO2)Oc1ccccc1 (stereo unspecified) | inactive |
| CC1=C2N=C(C=C3N=C(C(C)=C4[N-][C@@](C)([C@@H]5N=C1[C@](C)(CCC(=O)NC[C@@H](C)OP(=O)([O-])O[C@H]1[C@@H](O)[C@@H](n6cnc7cc(C)c(C)cc76)O[C@@H]1CO)[C@H]5CC(N)=O)[C@@](C)(CC(N)=O)[C@@H]4CCC(N)=O)[C@@](C)(CC(N)=O)[C@@H]3CCC(N)=O)C(C)(C)[C@@H]2CCC(N)=O.[C-]#N.[Co+3] | active: 39.8 µM |
| CP(=O)(Nc1ccc(SC(F)(F)F)cc1)Oc1ccccc1 (stereo unspecified) | inactive |
| CCCOc1ccc(NP(C)(=O)Oc2ccc(Cl)cc2)cc1 (stereo unspecified) | inactive |
| COc1ccccc1OP(C)(=O)Nc1c(C)cccc1C (stereo unspecified) | inactive |
| CN1CCCCC1COC(=O)C1(O)c2ccccc2CCc2ccccc21 (stereo unspecified) | inactive |
| CCOC(=O)c1ccc(NP(C)(=O)Oc2cc(C)cc(C)c2)cc1 (stereo unspecified) | inactive |
| Cc1cc(C)cc(OP(C)(=O)Nc2ccc(C)cc2C)c1 (stereo unspecified) | inactive |
| COc1ccccc1OP(C)(=O)Nc1cccc(Br)c1 (stereo unspecified) | inactive |
| Cc1ccc(C)c(NP(C)(=O)Oc2ccccc2)c1 (stereo unspecified) | inactive |
| CP(=O)(Nc1cccc(Br)c1)Oc1ccccc1 (stereo unspecified) | inactive |
| Cc1cc(C)cc(OP(C)(=O)Nc2ccccn2)c1 (stereo unspecified) | inactive |
| CCN(CC)CCCOC(=O)C(O)(c1ccccc1)c1ccccc1 | inactive |
| O=[N+]([O-])c1ccc2c(c1)C=Nc1ccccc1O2 | active: 35.5 µM |

| SMILES | Potency |
| --- | --- |
| Cc1cccc(C)c1OP(C)(N)=O (stereo unspecified) | inactive |
| CC(C)(C)c1ccc(OP(C)(=O)Nc2ccc(SC(F)(F)F)cc2)cc1 (stereo unspecified) | inactive |
| Cc1cc(C)cc(OP(C)(N)=O)c1 (stereo unspecified) | inactive |
| COc1ccc(OP(C)(=O)Nc2cccc(F)c2)cc1 (stereo unspecified) | inactive |
| COc1ccccc1OP(C)(=O)Nc1cc(Cl)ccc1C (stereo unspecified) | inactive |
| Cc1ccc(NP(C)(=O)Oc2ccccc2)c(C)c1 (stereo unspecified) | inactive |
| COc1ccccc1OP(C)(=O)Nc1ccc(C)cc1 (stereo unspecified) | inactive |
| CCOC(=O)c1ccc(NP(C)(=O)Oc2ccccc2)cc1 (stereo unspecified) | inactive |
| CP(=O)(Nc1ccccc1Br)Oc1ccccc1 (stereo unspecified) | inactive |
| COc1ccccc1OP(C)(=O)Nc1ccccc1 (stereo unspecified) | inactive |
| CP(=S)(Nn1cnnc1)Oc1ccccc1 (stereo unspecified) | inactive |
| Cc1cc(C)cc(OP(C)(=O)Nc2ccc(SC(F)(F)F)cc2)c1 (stereo unspecified) | inactive |
| CCc1ccc(OP(C)(=O)N2CCN(c3ccc([N+](=O)[O-])cc3)CC2)cc1 (stereo unspecified) | inactive |
| CP(=O)(NC(=O)Nc1ccccc1)Oc1ccccc1 (stereo unspecified) | inactive |
| CP(=O)(Oc1ccccc1)OC(c1ccccc1)C(F)(F)F (stereo unspecified) | inactive |
| Cc1cccc(C)c1OP(C)(=O)Nc1ccc(SC(F)(F)F)cc1 (stereo unspecified) | inactive |
| CP(=O)(Nc1ccc(SC(F)(F)F)cc1)Oc1ccc(Cl)cc1 (stereo unspecified) | inactive |
| CP(=O)(Nc1ccccn1)Oc1ccc(Cl)cc1 (stereo unspecified) | inactive |
| CCOC(=O)c1ccc(NP(C)(=O)Oc2ccc(OC)cc2)cc1 (stereo unspecified) | inactive |
| CCOP(C)(=S)SCC(=O)NC(C)C(=O)O (stereo unspecified) | inactive |
